The target in assay [1] is T1, Kappa-type opioid receptor (Homo sapiens, UniProt P41145). The assay can be described thus: Agonist activity at human kappa opioid receptor expressed in CHO cell membrane assessed as [35S]GTPgammaS binding after 3 hrs by liquid scintillation counting analysis. Format: functional, cell membranes. (In general: Binding of GTPγS marks nucleotide exchange on a G protein.)

Amino acid sequences for entries named in this document (tags omitted). A change or cut given only in a name is not applied to a line headed by its entry.
UniProt P41145: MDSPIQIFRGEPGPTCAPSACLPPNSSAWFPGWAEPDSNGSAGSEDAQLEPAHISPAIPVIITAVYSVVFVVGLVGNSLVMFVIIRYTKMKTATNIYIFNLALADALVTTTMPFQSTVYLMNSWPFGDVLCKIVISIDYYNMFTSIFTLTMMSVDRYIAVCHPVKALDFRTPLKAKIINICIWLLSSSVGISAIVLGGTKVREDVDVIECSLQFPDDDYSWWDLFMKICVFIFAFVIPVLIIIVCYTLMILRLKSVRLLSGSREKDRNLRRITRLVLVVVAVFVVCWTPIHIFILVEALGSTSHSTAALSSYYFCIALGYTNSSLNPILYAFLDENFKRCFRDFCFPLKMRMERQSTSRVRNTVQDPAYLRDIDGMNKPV

Assay [2] deals with T1, Kappa-type opioid receptor. Kind of assay: Agonist activity at human kappa opioid receptor expressed in CHO cell membrane assessed as [35S]GTPgammaS binding after 3 hrs by liquid scintillation counting analysis relative to (-)-U50488H. Format: functional, cell membranes.

The term Emax denotes the greatest response seen or fitted, relative to the assay's reference.

Turning to `COCO[C@H]1C[C@@H](C(=O)OC)[C@]2(C)CC[C@H]3C(=O)O[C@H](c4ccoc4)C[C@]3(C)[C@H]2C1=O`, the ED50 in assay [1] amounted to 6 nM. Besides, the Emax in assay [2] is 118%.

For the origin of these results see ChEMBL document CHEMBL3217531, “Potential Drug Abuse Therapeutics Derived from the Hallucinogenic Natural Product Salvinorin A” (Medchemcomm, 2011).
